Laboratory results as given in ChEMBL document CHEMBL1130069, “Structure-activity relationships of N-hydroxyurea 5-lipoxygenase inhibitors” (J Med Chem, 1997).

These molecules were tested against T1, Polyunsaturated fatty acid 5-lipoxygenase (Rattus norvegicus, UniProt P12527) (assay: Inhibition of 5-lipoxygenase on rat basophil leukemia cell line lysate (RBL-1 2H3 subline) by measuring 5-HETE production).
T1 sequence (P12527 whole entry): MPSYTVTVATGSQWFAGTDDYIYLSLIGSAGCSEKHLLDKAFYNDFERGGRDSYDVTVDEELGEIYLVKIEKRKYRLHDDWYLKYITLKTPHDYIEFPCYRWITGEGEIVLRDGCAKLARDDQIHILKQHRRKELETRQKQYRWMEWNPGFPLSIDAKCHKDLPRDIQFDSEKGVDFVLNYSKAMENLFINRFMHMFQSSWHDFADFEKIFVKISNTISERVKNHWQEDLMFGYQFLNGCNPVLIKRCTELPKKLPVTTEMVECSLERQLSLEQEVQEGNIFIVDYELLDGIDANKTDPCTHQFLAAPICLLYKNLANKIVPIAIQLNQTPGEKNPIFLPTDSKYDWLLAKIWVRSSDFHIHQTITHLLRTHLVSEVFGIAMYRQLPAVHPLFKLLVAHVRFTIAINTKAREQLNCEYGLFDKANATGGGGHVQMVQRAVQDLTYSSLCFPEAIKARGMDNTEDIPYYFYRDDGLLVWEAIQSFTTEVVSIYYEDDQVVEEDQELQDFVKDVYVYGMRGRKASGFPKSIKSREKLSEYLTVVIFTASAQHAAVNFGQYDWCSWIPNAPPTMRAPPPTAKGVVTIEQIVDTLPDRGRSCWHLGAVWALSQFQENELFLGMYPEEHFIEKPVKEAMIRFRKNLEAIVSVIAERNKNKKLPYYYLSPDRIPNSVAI
Format: functional, cell-based

SMILES | IC50 [µM]
NC(=O)N(O)Cc1ccc(Oc2ccccc2)s1 | 0.57
Cc1ccc(/C=C/CN(O)C(N)=O)o1 | 2
CC(C(=O)N(C)O)c1cc2ccccc2s1 (centres undefined) | 0.68
CC(C#Cc1cccc(Oc2ccccc2)c1)N(O)C(N)=O (centres undefined) | 0.15
